IC50 data for 20 molecules are collected here from patent US20240148821A1, “PHARMACEUTICAL USE OF CYCLIC PEPTIDE COMPOUND” (CHUGAI SEIYAKU KABUSHIKI KAISHA, priority 2021, published 2024).

Sequences of proteins named here, by UniProt entry; tags and fusion partners are left off. Residues count along the entry.
UniProt P01116, 1-188 isoform 2 G12D limits assumed: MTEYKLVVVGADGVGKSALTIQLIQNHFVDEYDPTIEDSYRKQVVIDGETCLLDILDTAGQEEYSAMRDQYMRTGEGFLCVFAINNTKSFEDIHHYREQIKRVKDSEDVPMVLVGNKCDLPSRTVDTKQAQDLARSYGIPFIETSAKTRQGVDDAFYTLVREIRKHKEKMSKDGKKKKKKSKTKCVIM

The test system of assay [1] is Human pancreatic cancer cell line AsPC-1 (G12D mutation Kras). The assay is described as follows: AsPC-1 cell growth inhibition (AsPC-1 CGI). Conditions: read-out: AsPC-1 cell growth inhibition, 50% growth inhibitory concentration (IC50 value); 96 hours, CellTiter-Glo, values classified in ranges. A general note: Cellular ATP, detected with luciferase, serves as a proxy for viable cell number.

In assay [2] the target is protein-protein interaction between Kras and SOS1 (biotin-tagged human Kras loaded with GDP, His-tagged human SOS1) (Homo sapiens (Human), UniProt P01116, G12D). The assay is described as follows: Protein-protein interaction inhibition between Kras and SOS1 (KrasG12D-SOS PPI) using AlphaScreen.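 Also: kras produced in E. coli, Ni-coupled donor beads and streptavidin acceptor beads, excitation 680 nm with emission detected at 520–620 nm via singlet oxygen transfer.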 Type of assay: biochemical. Conditions: read-out: KRAS G12D-SOS PPI IC50. For orientation: In Alpha technology, singlet oxygen from a donor bead excites a nearby acceptor bead.

With `CC[C@H](C)[C@@H]1NC(=O)[C@H](CC(C)C)N(C)C(=O)C[C@@H](C(=O)N2CCCCC2)N(C)C(=O)[C@H](C2CCCCC2)N(C)C(=O)C2(CCCC2)NC(=O)[C@@H]2C[C@@H](c3ccccc3)CN2C(=O)[C@H](CCc2ccc(C(F)(F)F)c(Cl)c2)NC(=O)CN(C)C(=O)[C@H](CC2CCCCC2)N(C)C(=O)[C@@H]2CCN2C(=O)[C@H](C)N(C)C1=O`, the IC50 in assay [1] is greater than 500 nM.
For the molecule `CCC[C@@H]1NC(=O)[C@H](CC(C)C)N(C)C(=O)C[C@@H](C(=O)N2CCCCC2)N(C)C(=O)[C@H](C(C)C)N(C)C(=O)C2(CCCC2)NC(=O)[C@@H]2CCCN2C(=O)[C@H](CCc2ccc(C(F)(F)F)c(Cl)c2)NC(=O)CN(C)C(=O)[C@H](CC2CCCCC2)N(C)C(=O)[C@@H]2CCN2C(=O)[C@H](C)N(C)C1=O`, in assay [1], the IC50 was greater than 500 nM.
Turning to `CC[C@H](C)[C@@H]1NC(=O)[C@H](C)N(C)C(=O)C[C@@H](C)NC(=O)[C@H](C(C)C)N(C)C(=O)C2(CCCC2)NC(=O)[C@@H]2CCCN2C(=O)[C@H](CCc2ccc(C(F)(F)F)c(Cl)c2)NC(=O)[C@@H](C)N(C)C(=O)[C@H](Cc2ccc(F)cc2)N(C)C(=O)[C@@H]2CCCN2C(=O)CN(C)C1=O`, the IC50 is 20 nM in assay [2] and greater than 500 nM in assay [1].
For the molecule `CC[C@H](C)[C@@H]1NC(=O)[C@H](C)N(C)C(=O)C[C@@H](C)N(C)C(=O)[C@H](C2CCCCC2)N(C)C(=O)C(C)(C)N(C)C(=O)[C@@H]2CCCN2C(=O)[C@H](CCc2ccc(C(F)(F)F)c(Cl)c2)NC(=O)CN(C)C(=O)[C@H](CC2CCCCC2)N(C)C(=O)CN(C)C(=O)CN(C)C1=O`, the IC50 in assay [1] is greater than 500 nM.
Take `CC[C@H](C)[C@@H]1NC(=O)[C@H](CC(C)C)N(C)C(=O)C[C@@H](C)N(C)C(=O)[C@H](C(C)C)N(C)C(=O)[C@](C)(CC(C)C)NC(=O)[C@@H]2CCCN2C(=O)[C@H](CCc2ccc(C(F)(F)F)c(Cl)c2)NC(=O)CN(C)C(=O)[C@H](CC2CCCCC2)N(C)C(=O)CN(C)C(=O)CN(C)C1=O`: in assay [1], the IC50 was greater than 500 nM.
As to `CC[C@H](C)[C@@H]1NC(=O)[C@H](CC(C)C)N(C)C(=O)C[C@@H](C(=O)N2CCCCC2)N(C)C(=O)[C@H](C2CCCCC2)N(C)C(=O)C2(CCCC2)NC(=O)[C@@H]2Cc3ccccc3N2C(=O)[C@H](CCc2ccc(C(F)(F)F)c(Cl)c2)NC(=O)CN(C)C(=O)[C@H](CC2CCCCC2)N(C)C(=O)[C@@H]2CCCN2C(=O)CN(C)C1=O`, the figures for the IC50 in assay [2] and in assay [1] were 8.4 nM and greater than 500 nM, respectively.
Take `C#CCC[C@H]1C(=O)N[C@@H]([C@@H](C)CC)C(=O)N(C)CC(=O)N(C)CC(=O)N(C)[C@@H](Cc2ccc(I)cc2)C(=O)N(C)CC(=O)N[C@@H](CCc2ccc(C(F)(F)F)c(Cl)c2)C(=O)N2CCC[C@H]2C(=O)NC2(CCCC2)C(=O)N(C)[C@@H](C2CCCCC2)C(=O)N(C)[C@H](C(=O)N2CCCCC2)CC(=O)N1C`: the IC50 in assay [2] amounted to 0.82 nM.
Turning to `CC[C@H](C)[C@@H]1NC(=O)[C@H](CC(C)C)N(C)C(=O)C[C@@H](C)NC(=O)[C@H](CC2CCCC2)N(C)C(=O)C2(CCCC2)NC(=O)[C@@H]2CCCN2C(=O)[C@H](CCc2ccc(C(F)(F)F)c(Cl)c2)NC(=O)CN(C)C(=O)[C@H](CC2CCCCC2)N(C)C(=O)CN(C)C(=O)CN(C)C1=O`, the IC50 in assay [1] is greater than 500 nM.
Still for that read-out and setting: the result for `CC[C@H](C)[C@@H]1NC(=O)[C@H](C)N(C)C(=O)C[C@@H](C(=O)N2CCCCC2)N(C)C(=O)[C@H](C(C)C)N(C)C(=O)C2(CCCC2)NC(=O)[C@@H]2CCCN2C(=O)[C@H](CCc2ccc(C(F)(F)F)cc2)NC(=O)CN(C)C(=O)[C@H](CC2CCCCC2)N(C)C(=O)[C@@H]2CCN2C(=O)[C@H](C)N(C)C1=O` reads greater than 500 nM; that for `CC[C@H](C)[C@@H]1NC(=O)[C@H](C)N(C)C(=O)C[C@@H](C)NC(=O)[C@H](C2CCCC2)N(C)C(=O)C2(CCCC2)NC(=O)[C@@H]2CCCN2C(=O)[C@H](CCc2ccc(C(F)(F)F)c(Cl)c2)NC(=O)CN(C)C(=O)[C@H](Cc2ccc(F)c(F)c2)N(C)C(=O)[C@@H]2CCCN2C(=O)CN(C)C1=O`, greater than 500 nM.
For `CC[C@H](C)[C@@H]1NC(=O)[C@H](C)N(C)C(=O)C[C@@H](C(=O)N2CCCCC2)N(C)C(=O)[C@H](C2CCCCC2)N(C)C(=O)C2(CCCC2)NC(=O)[C@H](Cc2cccnc2)N(C)C(=O)[C@H](CCc2ccc(C(F)(F)F)c(Cl)c2)NC(=O)CN(C)C(=O)[C@H](CC2CCCCC2)N(C)C(=O)[C@@H]2CCN2C(=O)CN(C)C1=O`, in assay [1], the IC50 is greater than 500 nM.
In the case of `CC[C@H](C)[C@@H]1NC(=O)[C@H](CC(C)C)N(C)C(=O)C[C@@H](C)N(C)C(=O)[C@H]([C@@H](C)CC)N(C)C(=O)C2(CCCC2)NC(=O)[C@@H]2CCCN2C(=O)[C@H](CCc2ccc(C(F)(F)F)c(Cl)c2)NC(=O)CN(C)C(=O)[C@H](Cc2ccc(C(F)(F)F)cc2)N(C)C(=O)[C@@H]2CCN2C(=O)[C@H](C)N(C)C1=O`, the IC50 in assay [1] was no more than 20 nM.
On to `CC[C@H](C)[C@@H]1NC(=O)[C@H](CC(C)C)N(C)C(=O)C[C@@H](C(=O)N2CCOCC2)N(C)C(=O)[C@H](C2CCCC2)N(C)C(=O)C2(CCCC2)NC(=O)[C@@H]2CCCN2C(=O)[C@H](CCc2ccc(C(F)(F)F)c(Cl)c2)NC(=O)CN(C)C(=O)[C@H](Cc2ccc(C(F)(F)F)cc2)N(C)C(=O)[C@@H]2CCN2C(=O)[C@H](C)N(C)C1=O`, for which the IC50 was 0.44 nM in assay [2] and no more than 20 nM in assay [1].
Consider `CCO[C@@H]1C[C@H]2C(=O)NC3(CCCC3)C(=O)N(C)[C@@H]([C@@H](C)CC)C(=O)N(C)[C@H](C)CC(=O)N(C)[C@@H](CC(C)C)C(=O)N[C@@H]([C@@H](C)CC)C(=O)N[C@@H](C)C(=O)N3CC[C@H]3C(=O)N(CC)[C@@H](Cc3ccc(C(F)(F)F)cc3)C(=O)N(C)CC(=O)N[C@@H](CCc3cc(F)c(C(F)(F)F)c(F)c3)C(=O)N2C1`, for which the IC50 in assay [1] is no more than 20 nM.
As to `CC[C@H](C)[C@@H]1NC(=O)[C@H](C)N(C)C(=O)C[C@@H](C(=O)N2CCCCC2)N(C)C(=O)[C@H](C(C)C)N(C)C(=O)C2(CCCC2)NC(=O)[C@@H]2CCCN2C(=O)[C@H](CCc2ccc(C(F)(F)F)c(Cl)c2)NC(=O)[C@H]2CCCN2C(=O)[C@H](CC2CCCCC2)N(C)C(=O)[C@@H]2CCCN2C(=O)CN(C)C1=O`, the IC50 in assay [2] was 11 nM; in assay [1], greater than 500 nM.
Take `CC[C@H](C)[C@@H]1NC(=O)[C@@H]2CCCCN2C(=O)C[C@@H](C)NC(=O)[C@H](C(C)C)N(C)C(=O)C2(CCCC2)NC(=O)[C@@H]2CCCN2C(=O)[C@H](CCc2ccc(C(F)(F)F)c(Cl)c2)NC(=O)CN(C)C(=O)[C@H](CC2CCCCC2)N(C)C(=O)CN(C)C(=O)CN(C)C1=O`: the IC50 in assay [2] was 32 nM; in assay [1] it was greater than 500 nM.
With `CC[C@H](C)[C@@H]1NC(=O)[C@H](CC2CCCC2)N(C)C(=O)C[C@@H](C(=O)N(C)C)N(C)C(=O)[C@H](C2CCCC2)N(C)C(=O)C2(CCCC2)NC(=O)[C@@H]2CCCN2C(=O)[C@H](CCc2ccc(C(F)(F)F)c(Cl)c2)NC(=O)CN(C)C(=O)[C@H](Cc2ccc(C)cc2)N(C)C(=O)[C@@H]2CCN2C(=O)[C@H](C)NC1=O`, the IC50 in assay [1] was no more than 20 nM.
With `CC[C@H](C)[C@@H]1NC(=O)[C@H](CC(C)C)N(C)C(=O)C[C@@H](C(=O)N2CCCCC2)N(C)C(=O)[C@H](COC2CCC2)N(C)C(=O)C2(CCCC2)NC(=O)[C@@H]2CCCN2C(=O)[C@H](CCc2ccc(C(F)(F)F)c(Cl)c2)NC(=O)CN(C)C(=O)[C@H](CC2CCCCC2)N(C)C(=O)[C@@H]2CCN2C(=O)[C@H](C)N(C)C1=O`, the IC50 in assay [1] was greater than 500 nM.
On to `CC[C@H](C)[C@@H]1NC(=O)[C@H](CC(C)C)N(C)C(=O)C[C@@H](C(=O)N2CCCCC2)N(C)C(=O)[C@H](C(C)C)N(C)C(=O)C2(CCCC2)NC(=O)[C@@H]2CCCN2C(=O)[C@H](CCc2ccc(C(F)(F)F)c(Cl)c2)NC(=O)CN(C)C(=O)[C@H](CCOC)N(C)C(=O)[C@@H]2CCN2C(=O)[C@H](C)N(C)C1=O`, for which the IC50 in assay [1] was greater than 500 nM.
For the molecule `CC[C@H](C)[C@@H]1NC(=O)[C@H](C)N(C)C(=O)C[C@@H](C(=O)N2CCCCC2)N(C)C(=O)[C@H](C(C)C)N(C)C(=O)C2(CCCC2)NC(=O)[C@H](Cc2cccc(C)c2)N(C)C(=O)[C@H](CCc2ccc(C(F)(F)F)c(Cl)c2)NC(=O)CN(C)C(=O)[C@H](CC2CCCCC2)N(C)C(=O)CN(C)C(=O)CN(C)C1=O`, the IC50 in assay [2] is 22 nM; in assay [1], greater than 500 nM.
